The values that follow are results of earlier work, collected in PMC11395313.

By Kd is commonly meant the equilibrium constant for the complex coming apart.

For the series, the target named is STIM2 K-rich domain (Homo sapiens) (UniProt Q9P246).

For calmodulin (from UniProt P0DP23), the dissociation constant (Kd) was 1 µM.
